The entries are a selection whose mix differs from that of the whole data set. Inconclusive results are not listed. Active and inactive are the calls of the source. Calls come from the whole dose curve; as a rule, active = well fitted inhibition curve with a large enough effect; inconclusive = small, poorly fitted or top-dose-only effect; inactive = no such curve, though single readings can be large or run the other way.

Amino acid sequences for entries named in this document (tags omitted).
UniProt Q8WZA2, whole entry: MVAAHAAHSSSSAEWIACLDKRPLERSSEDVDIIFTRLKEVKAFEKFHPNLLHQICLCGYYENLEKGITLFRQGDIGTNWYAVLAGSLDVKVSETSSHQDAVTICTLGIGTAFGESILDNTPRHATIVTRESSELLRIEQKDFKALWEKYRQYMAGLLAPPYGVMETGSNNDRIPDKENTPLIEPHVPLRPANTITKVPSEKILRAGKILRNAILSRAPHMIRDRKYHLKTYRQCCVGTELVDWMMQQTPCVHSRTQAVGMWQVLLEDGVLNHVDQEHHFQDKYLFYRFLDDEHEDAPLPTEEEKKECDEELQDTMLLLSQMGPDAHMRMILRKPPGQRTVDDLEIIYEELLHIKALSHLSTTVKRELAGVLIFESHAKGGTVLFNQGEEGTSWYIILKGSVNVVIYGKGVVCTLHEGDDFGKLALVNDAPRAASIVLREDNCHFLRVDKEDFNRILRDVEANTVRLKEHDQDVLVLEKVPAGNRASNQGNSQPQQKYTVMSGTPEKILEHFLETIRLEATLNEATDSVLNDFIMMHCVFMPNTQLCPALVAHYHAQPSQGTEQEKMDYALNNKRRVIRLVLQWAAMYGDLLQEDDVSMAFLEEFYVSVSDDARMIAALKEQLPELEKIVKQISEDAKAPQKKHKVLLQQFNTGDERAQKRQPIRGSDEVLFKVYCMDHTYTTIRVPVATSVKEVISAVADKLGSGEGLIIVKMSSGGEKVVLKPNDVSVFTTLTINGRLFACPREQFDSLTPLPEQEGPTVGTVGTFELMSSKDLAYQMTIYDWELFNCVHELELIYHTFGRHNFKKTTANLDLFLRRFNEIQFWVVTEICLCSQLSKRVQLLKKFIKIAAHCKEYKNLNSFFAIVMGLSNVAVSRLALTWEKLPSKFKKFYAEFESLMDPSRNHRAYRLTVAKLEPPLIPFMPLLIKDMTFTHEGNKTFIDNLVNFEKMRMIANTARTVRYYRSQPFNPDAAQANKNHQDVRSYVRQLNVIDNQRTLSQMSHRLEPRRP

For the assay, the target named is Rap guanine nucleotide exchange factor 4 (Homo sapiens) (UniProt Q8WZA2). In words: Validation qHTS for antagonist of cAMP-regulated guanine nucleotide exchange factor 4 (EPAC2).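 Note: 100% = activation by cAMP agonist control; nearly all actives have a fitted effect of over 40% in size.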 Particulars: EPAC2 Rap1B BODIPY-GDP exchange, fluorescence; at 239 µM (top of the series). The text has this:
Principle Investigator: Xiaodong Cheng Ph.D. The University of Texas Medical Branch, […], TX MLPCN Grant: NS066510 In multi-cellular eukaryotic organisms, the effects of cAMP are transduced by two ubiquitously-expressed intracellular cAMP receptors, the classic protein kinase A/cAMP-dependent protein kinase (PKA/cAPK) and the more recently discovered exchange protein directly activated by cAMP/cAMP-regulated guanine nucleotide exchange factor (EPAC/cAMP-GEF). Both PKA and EPAC are ubiquitously expressed in all tissues, and an increase in intracellular cAMP levels will lead to the activation of both PKA and EPAC. […] This qHTS will be used to screen the Molecular Libraries Small Molecule Repository (MLSMR) as a concentration-titration series using the NCGC unique quantitative screening (qHTS) platform to find activators for EPAC1. […] Activators are identified by monitoring the change in fluorescence signal as the exchanged free BODIPY-GDP has a reduced fluorescence compared to Rap1-bound BODIPY-GDP. […]
Briefly, three uL of reagents (100 nM EPAC2, 250 nM RAP1B-BODIPY-GDP, 50 uM GDP) were dispensed into a 1536-well Greiner black solid-bottom medium binding assay plate. […] The assay plates were read at 5 minute intervals for 30 minutes in the ViewLux plate reader using 480nm excitation and 540nm emission filters. […]
(In general: In qHTS, concentration-response curves come from the screen itself.)
For the compound `Cc1cc([N+](=O)[O-])cc([N+](=O)[O-])c1O`, the activity, negative = inhibition was inactive: -27.8%.

For the origin of these results see PubChem BioAssay AID1645886 (National Center for Advancing Translational Sciences (NCATS), 2021).
